These are literature values, as cited in patent US20230414772A1, “MULTI-SPECIFIC HUMAN ALBUMIN NANOPARTICLES DECORATED WITH ANTIBODY FRAGMENTS AND LOADED WITH CYTOTOXICS” (ANBITION S.R.L., priority 2020, published 2023).

As for “HSA: human serum albumin, plasma protein of 66.5 kDa”, the solubility entry (40% ethanol) was “soluble”. Also, the stability on heating entry (60° C., 10 h) is “without structural loss”.
